Measured values from article PMC7735735, “Store-Operated Calcium Entry as a Therapeutic Target in Acute Pancreatitis: Discovery and Development of Drug-Like SOCE Inhibitors” (Journal of Medicinal Chemistry, 2020).

Test system: HEK cells
Test: HEK cell viability after 72 h at 50 μM with or without uridine (involvement of DHODH)

## C/C(O)=C(\C#N)C(=O)Nc1ccc(C(F)(F)F)cc1 [teriflunomide]
  cell viability / cytotoxicity at 50 μM, 72 h: cytotoxic
Uridine 100 μM
  reversal of cytotoxicity by uridine: reverted by uridine addition
